Laboratory results from patent publication EP4821508A1, “PROPHYLACTIC OR THERAPEUTIC AGENT FOR POLYCYSTIC KIDNEY DISEASE” (dated 2026).

Tests used:
[1] = test system: PC2 mutant mIMCD3 cells; experiment: Tubule diameter enlargement inhibitory assay in 3D cyst culture system, PC2 mutant cells
Method: (§1) Using mutant mIMCD3 cells expressing a polycystin 1 missense protein or mutant mIMCD3 cells expressing a polycystin 2 missense protein, it was examined whether each compound has an activity of suppressing cyst enlargement. The mutation in the polycystin 1 protein or polycystin 2 protein reduces primary ciliary activity and results in cyst enlargement.
Three-dimensional cultures of the mutant mIMCD3 cells were prepared in accordance with the method described by Rachel H. Giles et al. (Nature Protocols, volume 9, pages 2725-2731 (2014)). In mIMCD3 cells (mIMCD3 cells: ATCC Cat. No. CRL-2123), PC1 mutant mouse kidney collecting duct-derived cells (PC1 mutant mIMCD3 cells) expressing a polycystin 1 missense protein (a mutation in which cysteine at position 210 in the amino acid sequence of SEQ ID NO: 1 is substituted with glycine), or PC2 mutant mIMCD3 cells expressing a polycystin 2 missense protein (a mutation in which tryptophan at position 412 in the amino acid sequence of SEQ ID NO: 2 (corresponding to position 414 in a human polycystin 2 missense protein) is substituted with glycine) were prepared. Each of the mutant mIMCD3 cells was suspended in DMEM/F-12 (L-glutamine) medium supplemented with 10% (vol/vol) FBS and 1% (vol/vol) penicillin-streptomycin, mixed with the compound A, C, R, or V at 20 µM or cholesterol at 200 µM, and Matrigel, and then transferred to an 8-well chamber slide plate. The mixture was incubated at 37°C under 5% CO2 conditions until solidification (15 to 30 minutes). Thereafter, pre-warmed medium was added to the solidified cell-Matrigel layer, and the cells were incubated at 37°C under 5% CO2 conditions with medium replacement until cyst formation.
The cysts thus formed were fixed, and sections were prepared. Subsequently, F-actin was stained with phalloidin, and DNA was stained with DAPI, followed by imaging using a fluorescence microscope. Further, in the merged images of the formed cysts, the size of the epithelial lumen formed inside the cyst was defined as the inner diameter, and the overall size of the cyst was defined as the outer diameter, and an inner diameter/outer diameter ratio was calculated. In FIG. 7A, the dotted line in the merged image indicates the width of the inner diameter.
Using the PC2 mutant mIMCD3 cells, the compounds A, G, and R, as well as the existing drug tolvaptan, were each added at three concentrations of 3.75 µM, 7.5 µM, and 15 µM, and it was examined, in the same manner as in Example 4, whether each compound has an activity of suppressing enlargement of cyst tubule diameter.
Further, using the PC2 mutant mIMCD3 cells, the compound A, the compound G, and the compound G-OH, which is a derivative of the compound G, were each added at 20 µM, and it was examined, in the same manner as in Example 4, whether each compound has an activity of suppressing enlargement of cyst tubule diameter.
In Example 4, the compounds A, C, and R were used. Additionally, the compounds B, Q, K, J, and I were evaluated in the same manner for their inhibitory effects on tubule diameter enlargement. The above PC2 mutant mIMCD3 cells were used as cells, and the compounds A, G, B, Q, K, J, and I were used as compounds. The compounds A, G, B, Q, K, and J were each used at 20 µM, while the compound I was used at four concentrations of 2.5 µM, 5 µM, 10 µM, and 20 µM. In the same manner as in Example 4, images were obtained using a fluorescence microscope, and the inner diameter/outer diameter ratio was determined. The results for the compounds A, G, B, Q, K, and J are shown in FIGS. 10A and 10B, and the results for the compounds A and I are shown in FIGS. 11A and 11B.

[2] = test system: VAP-A-deficient hTERT-RPE1 cells; experiment: Primary ciliary cholesterol delivery activity assay (Filipin III staining), VAP-A-deficient hTERT-RPE1 cells; conditions: VAP-A-deficient hTERT-RPE1 cells (VAPA-/-), 37°C, 4 hours
Method: Among the hit compounds obtained in Example 1, 10 compounds (compounds A, C, D, I, R, V, AB, AF, AL, and AP) were evaluated for their ability to increase cholesterol in primary cilia. hTERT-immortalized human retinal pigment epithelial cells (hTERT-RPE1 cells: ATCC CRL-4000) were treated with the hit compounds at 37°C for 4 hours, followed by multiplex staining with the cholesterol probe Filipin III (Merck KGaA), anti-acetylated tubulin antibodies (Merck KGaA) as a primary cilium marker, and anti-pericentrin antibodies (Bethyl Laboratories, Inc.) as a centrosome marker. The results of observation of cholesterol in primary cilia using a confocal laser microscope and the results of measurement of Filipin III fluorescence intensity in primary cilia are shown in FIG. 2A to FIG. 4B. In addition, the same analysis was performed using VAP-A-deficient hTERT-RPE1 cells generated by deleting the VAP-A gene using the CRISPR-ObLiGaRe method established by Royba, Miyamoto et al. (Sci Rep 2017). In the drawings, VAPA+/+ indicates hTERT-RPE1 cells, and VAPA-/- indicates VAP-A-deficient hTERT-RPE1 cells.

[3] = test system: CRFK cells; experiment: PC1 increasing activity assay in primary cilia of CRFK cells; conditions: 20 µM, 37°C, 8, 16 or 24 hours
Method: The effect of the compound G on increasing PC1 in primary cilia was evaluated. CRFK cells, which are a feline kidney-derived epithelial cell line, were prepared, and after treatment with the compound G (final concentration of 20 µM) at 37°C for 8, 16, or 24 hours, multiplex staining was performed with anti-polycystin 1 antibodies (Santa Cruz Biotechnology Inc.), anti-acetylated tubulin antibodies (Merck KGaA) as a primary cilium marker, and anti-FGFR1OP antibodies (Proteintech Group, Inc.) as a centrosome marker. The results of observation of PC1 in primary cilia using a confocal laser microscope and the results of measurement of fluorescence intensity of PC1 in primary cilia are shown in FIGS. 13A and 13B.

[4] = test system: induced pluripotent stem cells derived from patients with autosomal dominant polycystic kidney disease (HPS2192 cells, HPS2636 cells); experiment: Recovery assay of primary ciliary localization of polycystin 2 protein in patient-derived iPS cells; conditions: 37°C, 24 hours
Method: Using induced pluripotent stem cells derived from patients with autosomal dominant polycystic kidney disease (HPS2192 cells: RIKEN BRC RRID: CVCL_YS47 and HPS2636 cells: RIKEN BRC RRID: CVCL_YS58; RIKEN BioResource Research Center), it was examined whether the compound G-OH at 5 µM, 10 µM, and 20 µM, or the existing drug tolvaptan at 20 µM, has an activity of restoring localization of polycystin 2 protein to primary cilia.
The above human induced pluripotent stem cells were treated with the compound G-OH or tolvaptan at 37°C for 24 hours, followed by multiplex staining with anti-polycystin 2 antibodies (Santa Cruz Biotechnology Inc.), anti-ARL13B antibodies (Santa Cruz Biotechnology Inc.) as a primary cilium marker, and anti-FGFR1OP antibodies (Proteintech Group, Inc.) as a centrosome marker. The results of observation of polycystin 2 in primary cilia using a confocal laser microscope and the results of quantification of polycystin 2 levels in primary cilia by immunostaining are shown in FIGS. 12A and 12B. As a control, induced pluripotent stem cells derived from a healthy individual (HPS1006 cells: RIKEN BRC RRID: CVCL_UP39; RIKEN BioResource Research Center) were used (wild-type).

[5] = test system: PC1 mutant mIMCD3 cells; experiment: Tubule diameter enlargement inhibitory assay in 3D cyst culture system, PC1 mutant cells; conditions: 20 µM, cholesterol comparator 200 µM
Method: as §1
Three-dimensional cultures of the mutant mIMCD3 cells were prepared in accordance with the method described by Rachel H. Giles et al. (Nature Protocols, volume 9, pages 2725-2731 (2014)). […]
The cysts thus formed were fixed, and sections were prepared. Subsequently, F-actin was stained with phalloidin, and DNA was stained with DAPI, followed by imaging using a fluorescence microscope. Further, in the merged images of the formed cysts, the size of the epithelial lumen formed inside the cyst was defined as the inner diameter, and the overall size of the cyst was defined as the outer diameter, and an inner diameter/outer diameter ratio was calculated. […]

[6] = test system: mIMCD3 cells expressing a polycystin 1 missense protein; experiment: Recovery assay of primary ciliary localization of polycystin 1 missense protein; conditions: mutant mIMCD3 cells (C210G), 37°C, 4 hours
Method: Using mouse kidney collecting duct-derived cells (mIMCD3 cells: ATCC Cat. No. CRL-2123) expressing a polycystin 1 missense protein (a mutation in which cysteine at position 210 in the amino acid sequence of SEQ ID NO: 1 is substituted with glycine), it was examined whether the compound C has an activity to restore localization of polycystin 1 to primary cilia.
The above mutant mIMCD3 cells were treated with the compound C at 37°C for 4 hours, followed by multiplex staining with anti-polycystin 1 antibodies (Santa Cruz Biotechnology Inc.), anti-acetylated tubulin antibodies (Merck KGaA) as a primary cilium marker, and anti-FGFR10P antibodies (Proteintech Group, Inc.) as a centrosome marker. The results of observation of cholesterol in primary cilia using a confocal laser microscope and the results of measurement of fluorescence intensity of polycystin 1 protein in primary cilia are shown in FIGS. 6A and 6B. As a control, mIMCD3 cells without mutations were used (Wild type).

[7] = 3.75 µM, 7.5 µM and 15 µM, compared with tolvaptan

Q: For `COc1ccccc1CNS(=O)(=O)c1ccc(F)c(C(=O)Nc2cc(C)cc(C)c2)c1`, which “inner diameter/outer diameter ratio of cysts” value ([1]; 10 µM and 20 µM (tested at 2.5, 5, 10, 20 µM)) is on record?
A: activity of suppressing cyst size at a level comparable to that of the compound A

Q: And the “cholesterol in the primary cilia (Filipin III fluorescence intensity)” value [2]?
A: not observed

Q: Which “inner diameter/outer diameter ratio of cysts” value ([1]; 20 µM) does the source give for `Cc1cccc(-n2ncc3c(NCc4ccc(F)cc4)ncnc32)c1` here?
A: activity of suppressing cyst size at a level comparable to that of the compound G

Q: `COCCCNc1ncnc2c1cnn2-c1ccc(C)cc1C` was tested. Which “inner diameter/outer diameter ratio of cysts” value [1, 7] did it give?
A: activity of suppressing cyst size to a level comparable to that of tolvaptan

Q: And the “inner diameter/outer diameter ratio of cysts” value ([1]; 20 µM)?
A: has an activity of suppressing cyst size

Q: What about the “PC1 in primary cilia (fluorescence intensity)” value [3] of the same molecule?
A: has an activity of increasing PC1 in primary cilia

Q: What does the source list for `Cc1ccc(-n2ncc3c(NCCCO)ncnc32)c(C)c1`?
A: inner diameter/outer diameter ratio of cysts ([1]; 20 µM): has an activity of suppressing cyst size; amount of polycystin 2 in primary cilia ([4]; 5 µM, 10 µM and 20 µM): increased in a dose-dependent manner; restoring localization of polycystin 2 to primary cilia ([4]; patient-derived iPS cells): has an activity of restoring localization of polycystin 2 to primary cilia

Q: How did the “inner diameter/outer diameter ratio of cysts” value ([1]; 20 µM) turn out when `O=C(Nc1ccc(Br)cc1)c1cc(S(=O)(=O)NC2CCCCC2)ccc1Cl` was run?
A: activity of suppressing cyst size at a level comparable to that of the compound A

Q: `Cc1ccccc1C(=O)Nc1ccc(C(=O)N2CCCC(O)c3cc(Cl)ccc32)c(C)c1` (stereo not shown) was tested. Which “amount of polycystin 2 in primary cilia” value ([4]; 20 µM) did it give?
A: did not show activity

Q: With `COc1ccc(-n2ncc3c(Nc4cc(C)cc(C)c4)ncnc32)cc1` as the molecule, how does the “inner diameter/outer diameter ratio of cysts” value ([1]; 20 µM) read?
A: activity of suppressing cyst size at a level comparable to that of the compound G

Q: What does the source list for `O=C1C2C3C=CC(C3)C2C(=O)N1Cc1ccccc1` (stereo not shown)?
A: inner diameter/outer diameter ratio of cysts ([1]; 20 µM): reduced the inner diameter/outer diameter ratio to a level comparable to a level similar to that observed with cholesterol treatment; inner diameter/outer diameter ratio of cysts [5]: reduced the inner diameter/outer diameter ratio to a level comparable to a level similar to that observed with cholesterol treatment; localization of polycystin 1 to the primary cilia (fluorescence intensity of polycystin 1) [6]: has an activity to restore localization of polycystin 1 to the primary cilia; cholesterol in the primary cilia (Filipin III fluorescence intensity) [2]: not observed

Q: What does the source list for `Cc1ccc(-c2csc(NC(=O)c3ccc([N+](=O)[O-])cc3)n2)cc1C`?
A: inner diameter/outer diameter ratio of cysts [1, 7]: activity of suppressing cyst size greater than that of tolvaptan; inner diameter/outer diameter ratio of cysts ([1]; 20 µM): reduced the inner diameter/outer diameter ratio to a level comparable to a level similar to that observed with cholesterol treatment; inner diameter/outer diameter ratio of cysts [5]: reduced the inner diameter/outer diameter ratio to a level comparable to a level similar to that observed with cholesterol treatment
